Biological target: Receptor-type tyrosine-protein kinase FLT3 (Homo sapiens, UniProt P36888)
Experiment: Inhibition Assay: The enzymatic activity of FLT3 was determined using the Z-Lyte assay kit from Invitrogen (Invitrogen cat #PV3191). The assay was performed using the recommended manufacturer's instructions with 117.5 uM ATP and 1 nM FLT3 (Invitrogen cat #PV3182). The % inhibition values were determined according to the manufacturer's directions and IC50 values were obtained using a non-linear 4 point logistic curve fit (XLfit4, IDBS).

By UniProt entry, the sequences of proteins in these tests, tags left out.
UniProt P36888, whole entry: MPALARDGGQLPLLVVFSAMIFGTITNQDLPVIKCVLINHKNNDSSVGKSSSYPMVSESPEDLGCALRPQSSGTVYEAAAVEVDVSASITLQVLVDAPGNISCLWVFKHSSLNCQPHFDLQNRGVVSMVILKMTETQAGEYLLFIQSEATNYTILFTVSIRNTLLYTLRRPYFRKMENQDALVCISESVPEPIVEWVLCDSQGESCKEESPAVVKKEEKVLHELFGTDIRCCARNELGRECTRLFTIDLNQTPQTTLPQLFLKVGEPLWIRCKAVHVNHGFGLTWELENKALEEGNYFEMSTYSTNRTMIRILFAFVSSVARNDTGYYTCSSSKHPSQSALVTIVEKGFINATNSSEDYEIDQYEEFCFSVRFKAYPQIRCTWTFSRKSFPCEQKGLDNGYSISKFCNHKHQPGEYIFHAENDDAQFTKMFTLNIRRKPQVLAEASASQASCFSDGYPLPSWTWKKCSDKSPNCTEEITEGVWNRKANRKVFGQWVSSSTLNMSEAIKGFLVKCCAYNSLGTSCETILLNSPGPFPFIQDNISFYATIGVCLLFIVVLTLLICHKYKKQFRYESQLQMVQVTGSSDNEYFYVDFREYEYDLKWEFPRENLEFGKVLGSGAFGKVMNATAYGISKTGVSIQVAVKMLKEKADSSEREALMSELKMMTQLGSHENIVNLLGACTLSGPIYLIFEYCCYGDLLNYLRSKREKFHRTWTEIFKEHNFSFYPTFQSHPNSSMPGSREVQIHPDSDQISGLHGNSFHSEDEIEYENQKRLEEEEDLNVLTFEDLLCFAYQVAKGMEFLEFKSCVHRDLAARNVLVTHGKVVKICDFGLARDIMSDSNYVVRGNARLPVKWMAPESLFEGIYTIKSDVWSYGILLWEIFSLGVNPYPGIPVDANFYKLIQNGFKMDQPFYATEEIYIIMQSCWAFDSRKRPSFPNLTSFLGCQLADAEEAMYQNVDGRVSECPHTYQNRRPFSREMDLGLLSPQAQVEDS

`COc1ccc2c(c1)[C@]1(C[C@H]1c1ccc3c(C#Cc4ccc(CN5CCOCC5)cc4)n[nH]c3c1)C(=O)N2` (relative stereo) was tested, and the IC50 was “in the range around 550 nM”.
